Results as given in patent US20230142739A1.

Chains of the proteins cited; added tags and fusions are not shown.
UniProt P61981, whole entry: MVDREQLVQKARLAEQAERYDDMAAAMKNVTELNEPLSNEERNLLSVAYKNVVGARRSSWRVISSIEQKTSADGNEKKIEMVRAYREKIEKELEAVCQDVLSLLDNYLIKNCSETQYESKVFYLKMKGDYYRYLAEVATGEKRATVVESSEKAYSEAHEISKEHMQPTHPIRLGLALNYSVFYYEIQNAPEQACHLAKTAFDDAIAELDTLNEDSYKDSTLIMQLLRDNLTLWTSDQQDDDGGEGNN

Experiments:
Pin1_72/14-3-3 complex = Pin1_72/14-3-3 complex (Homo sapiens, UniProt P61981); assay: Fluorescence anisotropy compound titration, Pin1_72/14-3-3 (CC50); type: binding
Pin1_72/14-3-3γ = Pin1_72/14-3-3γ (Homo sapiens, UniProt P61981+Q13526); assay: Fluorescence anisotropy protein titration, Pin1_72/14-3-3γ at constant compound; type: binding; conditions: based on internal DMSO control and 100 μM fragment

Row | SMILES | activity in FA assay (Pin1_72/14-3-3 complex) | SF (fold stabilization) (Pin1_72/14-3-3γ)
1 | O=Cc1ccc(-n2ccnc2)cc1 | not active | 
2 | O=Cc1ccc(-n2ccnc2Br)nc1 [16d, 6-(2-bromo-1H-imidazol-1-yl)pyridine-3-carbaldehyde] | significant complex formation | 1.3
